Test results reported in patent US20250320206A1, “STAT6 DEGRADERS” (Gilead Sciences, Inc., priority 2024, published 2025).
pEC50: −log10 of the molar value. One block for each compound: values may come before it.

Protein sequences, listed by entry. Tags and fused reporters are not part of them.
UniProt P42226, whole entry: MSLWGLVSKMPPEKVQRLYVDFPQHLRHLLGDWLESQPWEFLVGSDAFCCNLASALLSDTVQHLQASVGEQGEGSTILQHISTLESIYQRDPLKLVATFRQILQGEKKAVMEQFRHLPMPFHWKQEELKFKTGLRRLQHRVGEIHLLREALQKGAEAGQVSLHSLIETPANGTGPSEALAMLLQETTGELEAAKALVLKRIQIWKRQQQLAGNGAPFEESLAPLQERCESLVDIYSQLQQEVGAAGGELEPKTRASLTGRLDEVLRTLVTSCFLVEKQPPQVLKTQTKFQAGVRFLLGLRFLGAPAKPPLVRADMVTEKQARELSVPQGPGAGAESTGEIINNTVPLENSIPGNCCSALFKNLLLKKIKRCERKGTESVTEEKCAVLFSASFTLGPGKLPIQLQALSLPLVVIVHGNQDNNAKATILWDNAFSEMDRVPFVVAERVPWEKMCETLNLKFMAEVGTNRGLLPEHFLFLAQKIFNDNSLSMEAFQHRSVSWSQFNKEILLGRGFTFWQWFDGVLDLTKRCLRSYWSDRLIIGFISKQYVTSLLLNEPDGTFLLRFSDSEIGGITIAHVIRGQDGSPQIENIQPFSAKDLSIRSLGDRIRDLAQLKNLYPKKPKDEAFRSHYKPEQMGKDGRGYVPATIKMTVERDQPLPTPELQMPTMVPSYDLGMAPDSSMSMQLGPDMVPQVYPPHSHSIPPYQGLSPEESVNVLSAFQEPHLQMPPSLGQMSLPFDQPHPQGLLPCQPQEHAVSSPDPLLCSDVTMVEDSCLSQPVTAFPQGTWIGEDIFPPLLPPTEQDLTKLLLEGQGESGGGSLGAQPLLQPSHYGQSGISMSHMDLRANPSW

How the values were obtained:
[1] = system: Eotaxin-3 release in human whole blood stimulated with IL-4; experiment: Human Whole Blood Eotaxin-3 Assay (IL-4 stimulated eotaxin-3 release); details: read-out: Eotaxin-3 EC50, IL-4 stimulation, 48 h, values given for compounds with >80% Emax, geometric mean
Experimental: Human Whole Blood Eotaxin-3 Assay
This was a human whole blood assay using recombinant human Interleukin 4 to stimulate the blood and measuring the ability of the test compounds to inhibit eotaxin-3 release. The biological activities of the test compounds have been tested in human whole blood stimulated with IL-4 measuring Eotaxin-3 release. The test compounds were added to 384 well clear flat-bottom plate in a 4-fold serial dilution in triplicates using a liquid handler. Human whole blood stabilized in lithium-heparin tubes was added in a volume of 65 μL per well, resulting in a final DMSO concentration of 0.5%. The plate is incubated for 2 h at 37° C. under 5% CO2/95% air. Subsequently, 5 μL of recombinant human IL-4 (R&D Systems, cat #204-ILB) was added to the wells to a final concentration of […]. The plate was incubated for 48 h at 37° C. under 5% CO2/95% air. The plate was spun down for 10 minutes at 500×g and 20 μL supernatant was harvested and transferred to a 384 well v-bottom plate using a liquid handler and stored at −20° C. until further analysis. 10 μL supernatant was used to measure the level of Eotaxin-3 (CCL26) using Human Eotaxin-3 MSD kit from Mesocsale (Cat #K251UEK-4). The assay was performed according to the manufacture instructions.
The data from the human whole blood eotaxin-3 assay is shown in FIG. 2 for Examples 3u208, 3u246, 3u118, 3u119, 3u120, and 3u74 (where the effect in % is plotted against the test concentration in M on a log scale).

STAT6 = STAT6 (Homo sapiens, UniProt P42226); experiment: Stat6 Degrader Assay (HiBiT based, HeLa LgBiT clone 4.14); details: read-out: STAT6 degradation DC50; HeLa LgBiT clone 4.14 HiBiT-STAT6, 4-24 h incubation; values given for compounds with >80% Emax; geometric mean
Experimental: This was a HiBit based assay. A HeLa cell line stably transfected with a small protein, LgBit (Large Bit) was obtained from Promega. These cells express endogenous STAT6. A small 11 amino acid gene sequence (HiBiT) was inserted in the STAT6 gene using CRISPR technology. Once STAT6 protein is expressed in the cells, the HiBiT sequence will bind the LgBit in the cells resulting in a functional NanoBiT protein, giving a luminescent tag to STAT6, see FIG. 2.
Single cell clones were prepared and the clone 4.14 was selected for the assay based on that clone showing high luminescence, high STAT6 phosphorylation upon stimulation with IL-4, and inhibition of luminescence when cells were treated with STAT6 siRNA.
HeLa LgBiT clone 4.14 cells were suspended in DMEM with 10% FCS, 1% Pen/Strep, Na-pyrovate and Hygromycin B, at a concentration of 1.25*105 cells pr mL. 5000 cells were added pr well of a 384 well plate and 20 nL of compound was added by Echo® liquid handler. NN6394A (terfenadine, a toxic compound) was added to control wells at 50 μM concentration to establish the assay window. In these wells the cells are dead which equals 100% degradation of STAT6.
After 4-24 h of incubation at 37° C. under 5% CO2/95% air, 5 μL substrate (Nano-GLO®) was added to the wells and the plates were centrifuged and incubated for 0.5 h.
The luminescence in the wells as a measure of non-degraded STAT6 was measured in a plate reader (BMG Pherastar FSX).
The dose-response curves for Examples 3u208, 3u246, 3u118, 3u119, 3u120, and 3u74 are shown in FIG. 1 (where percent degradation is plotted vs. test compound concentration in M on a log-scale).

SMILES: CNc1ccn(-c2ccnc3c2cc([C@H](C)N2CC=C(c4c(C)cc(C(=O)N5CCC(CN6CCN(Cc7cc8c(cc7F)N([C@H]7CCC(=O)NC7=O)C(=O)C8(C)C)C[C@@H]6C)CC5)cc4F)CC2)n3C)c(=O)c1
- pEC50 [1]: 8.15

SMILES: CNc1cc(=O)n(-c2ccnc3c2cc(CN2CC=C(c4c(F)cc(C(=O)N5CCC(CN6CCN(Cc7ccc8c(c7)n(C7CC7)c(=O)n8[C@H]7CCC(=O)NC7=O)C[C@@H]6C)CC5)cc4F)CC2)n3C)cc1F
- pEC50 [1]: 8.35
- DC50 (STAT6): 13.7 nM

- pEC50 [1]: 8.96
- DC50 (STAT6): 2.7 nM
SMILES: CNc1cc(=O)n(-c2ccnc3c2cc([C@H](C)N2CC=C(c4c(C)cc(C(=O)N(C)c5ccc(N6CCC(O)(Cc7ccc8c(c7)n(C)c(=O)n8C7CCC(=O)NC7=O)CC6)nc5)cc4F)CC2)n3C)cc1F (stereo partly shown)

SMILES: Cc1cc(C(=O)N2CCC(CN3CCN(Cc4ccc5c(c4)C(C)(C)C(=O)N5[C@H]4CCC(=O)NC4=O)C[C@@H]3C)CC2)cc(F)c1C1=CCN([C@@H](C)c2cc3c(-n4cc(F)c(N)cc4=O)ccnc3n2C)CC1
- pEC50 [1]: 8.12
- DC50 (STAT6): 2.5 nM

SMILES: CNc1ccn(-c2ccnc3c2cc([C@H](C)N2CC=C(c4c(C)cc(C(=O)N5CCC(CN6CCN(c7ccc8c(c7)n(C7CC7)c(=O)n8[C@H]7CCC(=O)NC7=O)CC6)CC5)cc4F)CC2)n3C)c(=O)c1 (single isomer, unassigned) [Example 3u279]
- pEC50 [1]: 8.51
- DC50 (STAT6): 3.1 nM

SMILES: CNc1cc(=O)n(-c2ccnc3c2cc([C@H](C)N2CC=C(c4c(F)cc(C(=O)N5CCC(CN6CCN(Cc7ccc8c(c7)n(C7CC7)c(=O)n8[C@H]7CCC(=O)NC7=O)C[C@@H]6C)CC5)cc4F)CC2)n3C)cc1F
- pEC50 [1]: 8.85
- DC50 (STAT6): 1 nM

SMILES: CNc1ccn(-c2ccnc3c2cc([C@H](C)N2CCC(c4ccc(C(=O)N5CCC(CN6CCN(Cc7ccc8c(c7)C(C)(C)C(=O)N8[C@H]7CCC(=O)NC7=O)C[C@@H]6C)CC5)cc4)CC2)n3C)c(=O)c1
- pEC50 [1]: 8.43
- DC50 (STAT6): 3.4 nM
